In the test the target is Monoglyceride lipase (Rattus norvegicus) (UniProt Q8R431). The test can be described thus: Inhibition of rat brain membrane MAGL assessed as [3H]-2-oleoylglycerol hydrolysis after 10 mins by liquid scintillation spectroscopy.

Take `CCCCC/C=C\C/C=C\C/C=C\C/C=C\CCCC(=O)OCC1CO1` (stereo unspecified): the IC50 stood at 4.5 µM.

One may read the IC50 as the midpoint of a concentration-inhibition curve.

Source of the values: ChEMBL document CHEMBL2010713, “Structure-activity relationship of a new series of reversible dual monoacylglycerol lipase/fatty acid amide hydrolase inhibitors” (J Med Chem, 2012).
